Assays:
human IgE (human) [1] = assay: SPR Biacore T200, 37 C, hIgE on chip, antibody analyte; pH 5.8, 3 µM Ca
human IgE (human) [2] = assay: SPR Biacore T200, 37 C, hIgE on chip, antibody analyte; pH 5.8, […] Ca
human IgE (human) [3] = assay: SPR Biacore T200, 37 C, hIgE on chip, antibody analyte; pH 7.4, […] Ca

Chains of the proteins cited; added tags and fusions are not shown. Chains listed by the source or under a name are the forms on record and can include a tag or linker.
human IgE (human), heavy, as listed by the source, chain 1 of 2: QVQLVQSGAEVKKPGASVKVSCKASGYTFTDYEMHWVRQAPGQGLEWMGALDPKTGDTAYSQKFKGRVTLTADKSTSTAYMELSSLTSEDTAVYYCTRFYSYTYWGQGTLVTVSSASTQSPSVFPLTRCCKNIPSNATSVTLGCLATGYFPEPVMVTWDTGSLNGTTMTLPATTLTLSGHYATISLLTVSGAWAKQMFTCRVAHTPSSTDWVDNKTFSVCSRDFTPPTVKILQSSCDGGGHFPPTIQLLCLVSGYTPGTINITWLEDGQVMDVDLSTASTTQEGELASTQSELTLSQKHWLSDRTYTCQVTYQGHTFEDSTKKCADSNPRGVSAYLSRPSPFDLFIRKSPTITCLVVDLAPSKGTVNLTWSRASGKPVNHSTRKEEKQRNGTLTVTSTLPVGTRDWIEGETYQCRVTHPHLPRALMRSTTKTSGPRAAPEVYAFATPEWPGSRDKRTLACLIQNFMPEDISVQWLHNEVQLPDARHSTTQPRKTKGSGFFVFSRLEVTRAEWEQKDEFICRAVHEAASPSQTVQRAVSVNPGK

Kd (human IgE (human) [1]): 13 nM
Kd (human IgE (human) [2]): 9.9 nM
Kd (human IgE (human) [3]): 4.4 nM
Substance: Xolair (omalizumab, Novartis) (antibody)
